# In PubChem BioAssay AID720647 (Broad Institute, 2013):
# The list shows a part of the results, in another mix than the full data. Active and inactive are the calls of the source.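 How the source made its calls: active means drop in luminescence signal, shown as inhibition above about 50% in the replicate tests (limit read from the data, passing the limit was not always enough); inconclusive means probably only some replicates passing the limit; inactive means the rest.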
# Tested on: Drosophila bursicon receptor LGR2 (rickets)
# Experiment: LGR2 cAMP reporter signal reduction – cell-based, HEK293, CRE-luciferase reporter, bursicon stimulation, primary screen (AID 720647);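 further: agonist challenge used bursicon conditioned medium at about half maximal strength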
# Details: bursicon-stimulated, 4 h, at 9.99 µM, active compounds read high
row,SMILES,inhibition
1,O=C(O)C(O)c1ccc(N(CCCl)CCCl)cc1 (stereo not drawn),inactive: -6.65%
2,CCOC(=O)Nc1ccc([As](=O)(O)O)c(O)c1,inactive: -8.19%
3,CC1CCNP(=O)(N(CCCl)CCCl)O1 (stereo not drawn),inactive: -28.5%
4,COP(=O)(OC)N1CC1c1ccccc1 (stereo not drawn),inactive: -1.71%
5,Cc1cc(SC(NC(=O)c2ccccc2)C(Cl)(Cl)Cl)nc(C(C)C)n1 (stereo not drawn),inactive: -2.74%
6,CCCCOc1ccc(C(=O)NCC2(N3CCCCC3)CCCCC2)cc1OC,inactive: 2.15%
7,CCOC(=O)Nc1cccc([As](=O)(O)O)c1,inactive: 1.01%
8,Cc1cc(SC(NC=O)C(Cl)(Cl)Cl)ncn1 (stereo not drawn),inactive: 3.8%
9,O=P(Nc1ccccn1)(c1cccc2ccccc12)c1cccc2ccccc12,inactive: 5.32%
10,O=[N+]([O-])c1ccc(Nc2ccc(Oc3ccc([N+](=O)[O-])cc3[N+](=O)[O-])cc2)c([N+](=O)[O-])c1,inactive: 2.08%
11,COC(=O)C1(C)COP(=O)(N2CCCC2)OC1 (stereo not drawn),inactive: -4.63%
12,COP1(=S)c2c(C)nn(CCC#N)c2N=C(c2ccc(F)cc2)N1C (stereo not drawn),inactive: 12.4%
13,O=C(O)C(=O)c1ccc(N(CCCl)CCCl)cc1,inactive: 3.53%
14,O=C(Nc1ccncc1[N+](=O)[O-])c1ccc([N+](=O)[O-])cc1[N+](=O)[O-],inactive: 12.4%
15,O=C(OC1CN2CCC1CC2)c1cccc([N+](=O)[O-])c1 (stereo not drawn),inactive: -5.83%
16,CCOC(=O)c1ccc(NC(=O)C(C)(CCl)SC)cc1 (stereo not drawn),inactive: 12.5%
17,Cc1c2c(nc3ccccc13)SC(C(Cl)Cl)C2 (stereo not drawn),inactive: 9.49%
18,Cc1cc(=O)[nH]c(N[N+](=O)[O-])n1,inactive: 19.7%
19,O=P1(N(CCCl)CCCl)OCCCN1CCCl (stereo not drawn),inactive: 11.6%
20,O=P1(N(CCCl)CCCl)Nc2ccccc2N1,inactive: -39.9%
21,COc1cc(I)ccc1[As](=O)(O)O,inactive: -10%
22,O=[N+]([O-])c1cc(Oc2ccc([N+](=O)[O-])cc2C(F)(F)F)cc([N+](=O)[O-])c1,inactive: -6.2%
23,COc1ccc(N/C(=N/P(=O)(N2CCOCC2)N2CCOCC2)N2CCOCC2)cc1,inactive: 0.311%
24,O=[N+]([O-])c1ccc(-c2cc([N+](=O)[O-])c(O)c([N+](=O)[O-])c2)cc1,inactive: 2.28%
25,COc1cc(C(=O)NCC2(N3CCOCC3)CCCCC2)ccc1OCC(C)C,inactive: -12.9%
26,C[As](=O)(O)c1cccc(C(=O)O)c1,inactive: -14%
27,O=[As](O)(c1ccc(O)cc1)c1ccccc1O,inactive: 2.93%
28,Cc1ccc(OP(=O)(Nc2ccc([N+](=O)[O-])cn2)Oc2ccc(C)cc2)cc1,inactive: 2.41%
